{"sequences": {"note": "Sequences of proteins named here, by UniProt entry; tags and fusion partners are left off.", "UniProt Q61143, whole entry": "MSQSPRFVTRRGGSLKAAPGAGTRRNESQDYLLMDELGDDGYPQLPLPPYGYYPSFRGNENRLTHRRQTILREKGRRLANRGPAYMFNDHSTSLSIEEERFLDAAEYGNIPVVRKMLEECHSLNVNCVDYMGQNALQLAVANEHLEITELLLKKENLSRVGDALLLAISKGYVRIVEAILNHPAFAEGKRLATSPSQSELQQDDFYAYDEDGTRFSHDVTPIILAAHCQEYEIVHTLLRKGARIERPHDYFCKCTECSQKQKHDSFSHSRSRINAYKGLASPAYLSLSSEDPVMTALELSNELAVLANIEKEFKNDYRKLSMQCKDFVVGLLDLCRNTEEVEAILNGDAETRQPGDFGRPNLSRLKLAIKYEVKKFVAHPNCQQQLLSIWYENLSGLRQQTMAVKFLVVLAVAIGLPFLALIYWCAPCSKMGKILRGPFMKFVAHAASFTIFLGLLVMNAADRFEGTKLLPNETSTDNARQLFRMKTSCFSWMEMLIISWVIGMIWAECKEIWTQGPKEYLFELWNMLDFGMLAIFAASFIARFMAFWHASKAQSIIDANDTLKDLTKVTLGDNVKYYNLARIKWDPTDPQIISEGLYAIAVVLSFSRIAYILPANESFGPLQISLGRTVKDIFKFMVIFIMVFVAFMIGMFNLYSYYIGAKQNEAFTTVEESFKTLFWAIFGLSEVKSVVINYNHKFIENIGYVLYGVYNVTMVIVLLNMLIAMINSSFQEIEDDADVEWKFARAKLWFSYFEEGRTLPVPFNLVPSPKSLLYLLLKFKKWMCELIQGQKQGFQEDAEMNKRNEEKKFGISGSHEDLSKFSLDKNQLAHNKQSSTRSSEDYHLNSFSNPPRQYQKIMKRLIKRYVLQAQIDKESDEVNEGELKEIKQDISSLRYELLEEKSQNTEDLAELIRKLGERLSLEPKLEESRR"}, "source": "PubChem BioAssay AID434950", "about": "(Johns Hopkins Ion Channel Center, 2010)", "note": "The entries are a selection whose mix differs from that of the whole data set. Calls of active or inactive are those of the source.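 How the source made its calls: active means membrane potential signal rise above negative control mean plus 3 SD in both duplicates, also active in the earlier TRPC4 screen; inactive means the rest.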"}
{"target": "Short transient receptor potential channel 6 (Mus musculus) (UniProt Q61143)", "assay": "activation of mouse TRPC6 channel, confirmation, selectivity assay for TRPC4 activator project, cell-based, HEK293, membrane potential dye, duplicate (AID 434950)", "conditions": "HEK293 TRPC6, membrane potential fluorescence, at 10 µM"}
{"smiles": "CCN(CC)CCCOC(=O)C(O)(c1ccccc1)c1ccccc1", "outcome": "inactive"}
{"smiles": "CN(C)CCOC(=O)C(O)(c1ccccc1)C1CCCC1", "note": "(configuration not stated)", "outcome": "inactive"}
